This note sets out measurements from ChEMBL document CHEMBL1131423, “N-(2-Benzoylphenyl)-L-tyrosine PPARgamma agonists. 2. Structure-activity relationship and optimization of the phenyl alkyl ether moiety” (J Med Chem, 1998).

Assay [1] has as its target T1, Peroxisome proliferator-activated receptor alpha (Homo sapiens, UniProt Q07869).
T1 sequence (Q07869 whole entry): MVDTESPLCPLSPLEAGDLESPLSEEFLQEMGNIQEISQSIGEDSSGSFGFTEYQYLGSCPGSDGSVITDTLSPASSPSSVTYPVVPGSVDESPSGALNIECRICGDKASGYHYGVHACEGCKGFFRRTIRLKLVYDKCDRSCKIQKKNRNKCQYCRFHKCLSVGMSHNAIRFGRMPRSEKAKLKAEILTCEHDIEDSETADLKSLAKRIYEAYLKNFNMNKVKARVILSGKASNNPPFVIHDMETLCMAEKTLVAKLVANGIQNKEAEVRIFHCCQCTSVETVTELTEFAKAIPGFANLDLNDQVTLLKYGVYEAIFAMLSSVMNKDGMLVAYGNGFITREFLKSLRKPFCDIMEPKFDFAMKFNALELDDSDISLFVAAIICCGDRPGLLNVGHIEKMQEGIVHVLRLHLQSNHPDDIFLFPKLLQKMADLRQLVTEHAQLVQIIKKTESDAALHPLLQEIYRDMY
In words: In vitro transactivation of Peroxisome proliferator activated receptor alpha. It counts as functional.

The target of assay [2] is T1, Peroxisome proliferator-activated receptor alpha. In words: Tested in vitro for inhibiting the 50% binding of Peroxisome proliferator activated receptor alpha.

By EC50 is commonly meant the midpoint of the concentration-response curve. A low value points to greater potency. Broadly, the Ki is the equilibrium dissociation constant of an inhibitor or competing ligand from its target. The low end stands for tighter binding, the high end for weaker binding. In assay [1], `Cc1oc(-c2ccccc2)nc1CCOc1ccc(C[C@H](Nc2ccccc2C(=O)c2ccccc2)C(=O)O)cc1` [FARGLITAZAR] gave an EC50 of 457 nM. In assay [2], the affinity corresponds to a Ki of 490 nM.
